Molecular target: F Xa (bovine) (Bos taurus, UniProt P00743)
Experiment: Inhibition of F Xa, Ki by the method of Dixon, chromogenic substrate Moc-D-Nle-Gly-Arg-pNA
Conditions: Example 4; inhibition of factor Xa by inhibitors of formula I; tested form: 2 TFA

The chains behind the UniProt entries cited, without tags or fusion partners. Residues count along the entry.
UniProt P00743, 234-492 limits assumed: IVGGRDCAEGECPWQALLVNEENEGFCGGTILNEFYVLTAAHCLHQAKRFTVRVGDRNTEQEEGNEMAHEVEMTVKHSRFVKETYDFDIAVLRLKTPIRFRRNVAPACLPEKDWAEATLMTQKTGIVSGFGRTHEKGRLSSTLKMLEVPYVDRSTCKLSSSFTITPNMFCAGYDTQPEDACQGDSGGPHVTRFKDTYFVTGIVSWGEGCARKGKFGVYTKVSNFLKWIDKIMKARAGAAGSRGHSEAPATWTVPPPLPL
UniProt P00743, 41-180 partner limits assumed: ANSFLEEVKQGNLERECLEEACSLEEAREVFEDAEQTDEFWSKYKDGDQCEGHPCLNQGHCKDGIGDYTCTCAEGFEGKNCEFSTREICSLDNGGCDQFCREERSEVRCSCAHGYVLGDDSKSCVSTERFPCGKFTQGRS

In the case of CC(C)(C)OC[C@@H](NS(=O)(=O)Cc1ccc(CN)cc1)C(=O)NCC(=O)NCc1ccc(C(=N)N)cc1, the Ki is reported as 350 nM.

Source: patent US20050119190A1, “Inhibitors of the blood-clotting factor xa, production thereof and use of the same” (priority 2002, published 2005)
